Laboratory results as given in patent US20220017495A1, “CONJUGATES OF BIVALENT EVANS BLUE DYE DERIVATIVES AND METHODS OF USE” (THE UNITED STATES OF AMERICA, AS REPRESENTED BY THE …, priority 2019, published 2022).

The chains behind the UniProt entries cited, without tags or fusion partners. Residues count along the entry.
UniProt P02768, 25-609: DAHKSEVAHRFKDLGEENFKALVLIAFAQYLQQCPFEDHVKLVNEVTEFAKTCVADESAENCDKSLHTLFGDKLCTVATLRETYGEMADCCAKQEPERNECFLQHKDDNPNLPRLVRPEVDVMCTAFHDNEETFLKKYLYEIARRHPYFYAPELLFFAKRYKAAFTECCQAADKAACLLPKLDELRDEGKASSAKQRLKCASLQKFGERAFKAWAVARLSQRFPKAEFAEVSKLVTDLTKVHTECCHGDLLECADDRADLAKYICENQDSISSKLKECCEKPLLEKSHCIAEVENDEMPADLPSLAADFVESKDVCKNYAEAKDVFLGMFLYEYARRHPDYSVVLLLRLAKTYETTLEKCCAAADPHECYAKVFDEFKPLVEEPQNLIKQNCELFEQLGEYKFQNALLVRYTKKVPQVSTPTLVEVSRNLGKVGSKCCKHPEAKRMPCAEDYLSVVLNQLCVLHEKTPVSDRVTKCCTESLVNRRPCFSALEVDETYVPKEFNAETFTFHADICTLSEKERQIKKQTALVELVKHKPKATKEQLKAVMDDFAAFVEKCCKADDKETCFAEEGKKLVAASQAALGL
UniProt P02768, 404-601: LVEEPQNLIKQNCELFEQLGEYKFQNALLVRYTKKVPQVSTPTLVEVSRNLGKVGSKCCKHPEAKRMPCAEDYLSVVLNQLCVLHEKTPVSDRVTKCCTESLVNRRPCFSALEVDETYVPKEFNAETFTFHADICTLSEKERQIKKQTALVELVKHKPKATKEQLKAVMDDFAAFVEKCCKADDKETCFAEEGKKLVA

Tests used:
[1] = molecular target: human serum albumin (HSA) (Homo sapiens, UniProt P02768); test: in vitro; conditions: pH 7.4
Procedure: In this study, we used the streptavidin conjugated biosensors (Pall Fort6Bio LLC, CA). We preincubated the biosensors with biotinylated HSA (Abeam Inc., Cambridge, Mass.) for 10 minutes. After removing the unbound biotinylated HSA, the biosensors were washed for 1 minute. After blocking the spare biosensor, we added EZ-Link™ Sulfo-NHS-Biotin (Thermo Fisher Scientific, Rockford, Ill.) to each well and then removed it and washed the wells.
Association of a given dilution of a compound with the albumin-derivatized biosensor was measured for 600 seconds and then in turn, dissociation of the compound from the albumin measured for another 600 seconds. Data was analyzed using the OCTET Data Analysis software 7.0.

[2] = molecular target: recombinant HSA subunits (three separate domains of albumin) (Homo sapiens, UniProt P02768); conditions: LC-MS

SMILES: Cc1cc(-c2ccc(N=Nc3ccc4c(S(=O)(=O)O)cc(S(=O)(=O)O)c(N)c4c3O)c(C)c2)ccc1N=Nc1ccc2c(S(=O)(=O)O)cc(S(=O)(=O)O)c(N)c2c1O [EB, tetrasodium salt of 6,6′-{(3,3′-dimethyl[1,1′-biphenyl]-4,4′-diyl)bis[diazene-2,1-diyl]}bis(4-amino-5-hydroxynaphthalene-1,3-disulfonate)]
- koff [1]: 0.178 s⁻¹
- kon [1]: 45100 M⁻¹ s⁻¹
- HSA subunit observed to complex with the compound [2]: Only domain III subunit

Counter-ions that a name gives are not always drawn.
